Reference: patent US20140378378A1, “ERYTHROPOIETIN-DERIVED PEPTIDE AND USE THEREFOR” (priority 2011, published 2014)

What was measured:
cardiomyocytes = assay: Cell survival of cardiomyocytes, MTT assay, 72 hours in PBS free of serum and nutrients, hypoxic condition; format: cell-based, Wister rat; details: 0 nM = 100%
Experimental: An 8 weeks old Wister rat was injected with ketamine and pentobarbital to quickly kill the […], and the heart was quickly separated from the mouse. An aorta was used to perfuse with Ca free Krebs-Henseleit buffer (KHB) solution, which was pre-heated to a temperature of about 34° C. to about 37° C., in heart direction. Thereafter, the KHB solution was switched to Hank's balanced salt solution (HBSS:GIBCO, Grand Island, N.Y.) containing 0.15% class II collagenase (Cooper Biomedical, Malvern, Pa.) and then perfused for about 30 to about 40 minutes. Thereafter, the product obtained therefrom was washed twice with a cell culture medium (Dulbecco's modified Eagle's medium, DMEM). Ventricles and atria were separated therefrom, ventricular tissues were thoroughly chopped and then stirred thoroughly for about 5 minutes in a shaker filled with cell culture medium (DMEM) containing class II collagenase that was pre-heated to a temperature of about 34° C. to about 37° C. Connective tissues that were not dissolved were filtered and a collagenase-containing solution was washed twice with the cell culture medium (DMEM). The product obtained therefrom was gently centrifuged at a speed of 10 g for 2 minutes, a supernatant obtained therefrom was separated and removed, and cell components were washed three times with a cell culture medium (DMEM) solution containing 1% fetal bovine serum (FBS; Sigma Chemical, St. Louis, Mo.). Thereafter, the cells obtained therefrom were stabilized in a cell culture medium (DMEM), 10% FBS, 10 mM N-2-hydroxyethylpiperazine-N′-2-ethanesulfonic acid (HEPES, GIBCO Laboratories, Grand Island, N.Y.), 2 mM L-glutamine, penicilin-stereptomycin (100 IU/mL, GIBCO) for 60 minutes.
Thereafter, the cells were divided in a 6-well plate at a density of 20×10^3 cells/cm^2 and then bromodeoxyuridine (BrdU, 10 uM, Sigma-Aldrich) was added to the cell culture medium over 3 days to prevent the proliferation of fibroblasts and progenitor cells (Lokuta et al, 1994; Miragoli et al., 2006). The cells were cultured in an incubator under conditions of 95% of O2, 5% of CO2, and a temperature of 37° C. for the next experiment.
Cells were seeded in a 96-well plate at a density of 2×10^4 cells/well and 200 ul for each well. In this regard, cell confluence was set at about 70% to about 80%. After 24 hours, when the cells have been stabilized, a 26 gauge or 28 gauge needle was used to remove a preexisting medium from the wells. 200 ul of PBS free of serum and nutrients was added to each well, the wells were divided into erythropoietin (EPO) treatment groups and MKX-2 treatment groups, which were further divided into experimental groups according to concentrations of 0 nM, 0.1 nM, 1 nM, 10 nM, 100 nM, and 1000 nM and then treated with a drug for 72 hours in a hypoxic condition, and then the cells were subjected to an MTT assay to compare cell survival rates. The EPO used was an Eporon injection (Dong-A Pharmaceuticals, Korea). All experimental groups for each concentration included 7 wells.
After a predetermined treatment time, 3-[4,5-dimethylthiazol-2-yl]-2,5-diphenyl tetrazolium bromide (MIT, Sigma, M2128) that was dissolved in a phosphate buffered saline (PBS) and then sterilization filtered by using a membrane filter having a thickness of 0.22 um was added to each well in an amount of 100 ul at a concentration of 1 mg/ml. In this regard, an MTT reagent was used after wrapping the MTT reagent with a foil sheet to block from light. […]

[1] = tested on: cerebral infarction induced Sprague-Dawley rat models; assay: Cerebral infarction animal experiment: middle cerebral artery blockage/reperfusion, infarct volume by TTC dye; format: in vivo; details: 3.6 μg/kg MKX-2 injected right after reperfusion, measured after 24 hours
Text: In the present experiment, Spague-Dawley (SD) rats weighing about 280 g to about 330 g were used, which were purchased from Koatech Inc. (Seoul, Korea). The number of rats used was 39, wherein 13 of them were used as a control group and another 26 were divided into 13 in a MKX-2 treatment group and 13 in an EPO treatment group.
To induce cerebral infarction, a method of temporarily blocking a left middle cerebral artery and then reperfusing the same was used, and an intraluminal filament technique, which was modified from the Koizumi method was used. Then, each SD rat was anesthetized with a mixture gas of 70% nitrous oxide and 30% oxygen along with isoflurane (3% for induction and 2% for surgical procedure). During the surgery, an excision was made slightly leftwards from the center of the neck and the left common carotid artery was carefully separated without damaging surrounding vagus nerves. […]
The cerebral infarction area was measured by an image analyzer with LeicaQwin program (Leica Microsystem Image Solution Ltd., Cambridge, England) and a volume (mm^3) was calculated as a sum of infarct volumes (=infarct area of a slice×thickness) of the slices, and then an average and a standard deviation were calculated for each experimental group. […]

## CC[C@H](C)[C@H](N)C(=O)N[C@@H](CO)C(=O)NCC(=O)N[C@@H](CC(C)C)C(=O)N[C@@H](CCCNC(=N)N)C(=O)N[C@@H](CO)C(=O)N[C@@H](CC(C)C)C(=O)N[C@H](C(=O)N[C@H](C(=O)N[C@@H](CC(C)C)C(=O)N[C@@H](CC(C)C)C(=O)N[C@@H](CCCNC(=N)N)C(=O)N[C@@H](C)C(=O)N[C@@H](CC(C)C)C(=O)NCC(=O)N[C@@H](C)C(=O)N[C@@H](CCC(N)=O)C(=O)N[C@@H](CCCCN)C(=O)N[C@@H](CCC(=O)O)C(=O)N[C@@H](CC(C)C)C(=O)N[C@@H](CCSC)C(=O)O)[C@@H](C)O)[C@@H](C)O [MKX-2]
cardiomyocytes; 0.1 nM
  cell survival rate compared with 0 nM: not substantially different
cardiomyocytes; 1 nM
  cell survival rate compared with the initial condition: substantially decreased
cardiomyocytes; 10 nM
  cell survival rate: 102.67 ± 3.22%
cardiomyocytes; 100 nM
  cell survival rate: 112.28 ± 2.17%
cardiomyocytes; 1000 nM
  cell survival rate: 115.05 ± 0.90%
[1]
  volume of cerebral infarction: 159.24 ± 27.78 mm^3
